We go through one molecule from patent US20230085439A1.

Assay [1] has as its target hMPV A2 F (human metapneumovirus).
Assay [2] addresses hMPV B1 F (human metapneumovirus).

B1: MPV465 (antibody, V domains shown)
VH: EVQLVESGGGVVQPGTSLRLTCVASGFTFGTYGMYWLRQSPGKGLEWVAFIWLDGSKTYYADSVKGRFTVSRDNSKNKLYLEMNSLSAEDTAMYYCARAPGSVWYDTRGHMKGWFDPWGQGTLVTVAS
VL: QSVLTQTPSVSGTPGQRVTISCSGSSSNIENNYLYWYQQLPGTAPKLLIYGDNRRPSGVPDRFSGSKSGTSASLAISGLRSEDEADYYCATWDDNLSGPVFGGGTKVTVL
Take B1: the figures for the half-maximal effective concentration (EC50) in assay [1] and in assay [2] were 0.47 µg/mL and 0.12 µg/mL, respectively.

The term EC50 denotes the concentration at which the effect is half-maximal. A higher EC50 goes with a less potent agent.
